Like-named read-outs stand apart in the source and are kept apart here.
Target: hM3 muscarinic receptor (Homo sapiens (Human), UniProt P20309)
Assay: Radioligand binding assay for muscarinic receptors ([3H]-NMS displacement, CHO cell membranes)
Description: The cells were grown in a 5% CO2, 37° C. incubator and lifted with 2 mM EDTA in dPBS. Cells were collected by 5 minute centrifugation at 650×g, and cell pellets were either stored frozen at −80° C. or membranes were prepared immediately for use. For membrane preparation, cell pellets were resuspended in lysis buffer and homogenized with a Polytron PT-2100 tissue disrupter (Kinematica AG; 20 seconds×2 bursts). Crude membranes were centrifuged at 40,000×g for 15 minutes at 4° C. The membrane pellet was then resuspended with re-suspension buffer and homogenized again with the Polytron tissue disrupter. The protein concentration of the membrane suspension was determined by the method described in Lowry et al., 1951, […], 193, 265. All membranes were stored frozen in aliquots at −80° C. or used immediately. […] The membranes were briefly homogenized using a Polytron tissue disruptor (10 seconds) prior to assay plate addition. […] Filter plates were rinsed three times with wash buffer (10 mM HEPES) to remove unbound radioactivity. […] The plates were then counted in a PerkinElmer Topcount liquid scintillation counter (PerkinElmer, Inc.). Binding data were analyzed by nonlinear regression analysis with the GraphPad Prism Software package (GraphPad Software, Inc., San Diego, Calif.) using the one-site competition model. […]

Protein sequences, listed by entry. Tags and fused reporters are not part of them.
UniProt P20309, whole entry: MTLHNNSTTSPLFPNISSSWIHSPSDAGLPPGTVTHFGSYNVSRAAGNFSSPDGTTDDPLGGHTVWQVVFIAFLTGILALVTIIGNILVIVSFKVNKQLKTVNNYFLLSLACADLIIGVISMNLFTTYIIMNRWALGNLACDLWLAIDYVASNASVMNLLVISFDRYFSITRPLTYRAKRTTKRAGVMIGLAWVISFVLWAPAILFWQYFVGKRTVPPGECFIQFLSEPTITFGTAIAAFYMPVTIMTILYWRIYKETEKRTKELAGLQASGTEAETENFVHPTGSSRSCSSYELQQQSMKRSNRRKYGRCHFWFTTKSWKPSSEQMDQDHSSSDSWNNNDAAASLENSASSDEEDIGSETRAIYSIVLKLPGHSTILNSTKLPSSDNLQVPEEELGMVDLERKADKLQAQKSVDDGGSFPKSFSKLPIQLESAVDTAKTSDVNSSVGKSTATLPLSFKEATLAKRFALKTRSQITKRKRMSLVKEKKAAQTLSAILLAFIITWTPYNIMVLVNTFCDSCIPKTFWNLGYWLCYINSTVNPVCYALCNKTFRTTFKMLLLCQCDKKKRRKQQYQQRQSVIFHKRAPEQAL

Row | SMILES | Ki [nM] | Ki (hM3 Muscarinic Receptor Binding, data rounded to nearest 0.1 nM) [nM]
1 | CN(C(=O)CCN1CCC(OC(=O)Nc2ccccc2-c2ccccc2)CC1)c1cccc(CC(=O)Nc2cccc(CCNC[C@H](O)c3ccc(O)c4[nH]c(=O)ccc34)c2)c1 [Compound I-62] | 0.1 | 
2 | CN(C(=O)CCN1CCC(OC(=O)Nc2ccccc2-c2ccccc2)CC1)c1ccc(CNC(=O)CCc2cccc(CNC[C@H](O)c3ccc(O)c4[nH]c(=O)ccc34)c2)cc1 [Compound I-96] |  | 0.1

From patent publication US8551978B2 (Theravance, Inc., priority 2009, dated 2013)
